Laboratory results from patent publication US6936585B2, “Corticotropin releasing factor 2 receptor agonists” (priority 2002, dated 2005).

Tests used:
CRF2R = molecular target: T1, CRF2R (Homo sapiens, UniProt Q13324); assay: CRF2R agonist activation (EC50 / Emax), called comparative CRF binding; type: cell-based; settings: for Emax: read-out: CRF2R Emax
T1 sequence (Q13324 1-411): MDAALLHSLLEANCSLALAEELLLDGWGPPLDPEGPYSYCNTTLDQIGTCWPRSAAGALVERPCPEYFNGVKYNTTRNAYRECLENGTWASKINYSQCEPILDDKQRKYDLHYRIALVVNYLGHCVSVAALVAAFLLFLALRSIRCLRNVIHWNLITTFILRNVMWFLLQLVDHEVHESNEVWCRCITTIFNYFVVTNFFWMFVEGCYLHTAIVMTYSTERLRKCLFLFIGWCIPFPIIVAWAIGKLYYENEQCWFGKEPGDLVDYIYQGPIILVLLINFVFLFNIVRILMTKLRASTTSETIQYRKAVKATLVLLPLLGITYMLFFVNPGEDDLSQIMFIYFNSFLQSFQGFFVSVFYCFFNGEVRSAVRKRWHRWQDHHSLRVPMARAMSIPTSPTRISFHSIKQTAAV
Outline: (§1)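 CRFR-expressing cells + peptide vs vehicle; read-out cAMP (lysate assay) or CRE-linked reporter expression (luciferase, CAT, fluorescent protein, alkaline phosphatase, etc.). Signal compared against vehicle-treated cells.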

CRF1R = molecular target: T2, CRF1R (Homo sapiens, UniProt P34998); assay: CRF1R agonist activation (EC50 / Emax), called comparative CRF binding; type: cell-based; settings: for EC50: CRF1R EC50; for Emax: read-out: CRF1R Emax
T2 sequence (P34998 24-415): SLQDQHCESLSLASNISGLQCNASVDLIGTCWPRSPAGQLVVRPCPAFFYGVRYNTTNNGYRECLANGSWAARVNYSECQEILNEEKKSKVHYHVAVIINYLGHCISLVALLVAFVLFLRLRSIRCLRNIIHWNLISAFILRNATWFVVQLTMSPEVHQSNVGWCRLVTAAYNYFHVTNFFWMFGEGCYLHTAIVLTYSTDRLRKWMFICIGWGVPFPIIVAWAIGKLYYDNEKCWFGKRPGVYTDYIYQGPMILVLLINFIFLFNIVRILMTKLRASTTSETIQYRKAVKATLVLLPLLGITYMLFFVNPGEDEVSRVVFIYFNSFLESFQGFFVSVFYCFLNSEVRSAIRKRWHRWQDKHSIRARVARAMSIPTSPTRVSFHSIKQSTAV
Outline: as §1

Structure (SMILES)	EC50 (CRF2R) [nM]	Emax (CRF2R) [%]	EC50 (CRF1R) [nM]	Emax (CRF1R) [%]
CC[C@H](C)[C@H](NC(=O)[C@@H](NC(=O)[C@H](CC(=O)O)NC(=O)[C@H](CC(C)C)NC(=O)[C@H](CC(C)C)NC(=O)[C@H](CC(C)C)NC(=O)[C@H](CCCNC(=N)N)NC(=O)[C@H](CC(N)=O)NC(=O)[C@H](CC(N)=O)NC(=O)[C@H](C)NC(=O)[C@H](C)NC(=O)[C@H](CCC(N)=O)NC(=O)[C@H](CCC(N)=O)NC(=O)[C@H](CCCCN)NC(=O)[C@H](CCC(=O)O)NC(=O)[C@H](CCCCN)NC(=O)[C@H](CCC(=O)O)NC(=O)[C@H](CCC(N)=O)NC(=O)[C@H](CCCCN)NC(=O)[C@H](CCC(=O)O)NC(=O)[C@@H](NC(=O)[C@H](CCC(=O)O)NC(=O)[C@@H](NC(=O)[C@H](CCSC)NC(=O)[C@H](CCCCN)NC(=O)[C@H](CCCNC(=N)N)NC(=O)[C@H](CC(C)C)NC(=O)[C@H](CC(C)C)NC(=O)[C@@H]1CCCN1C(=O)[C@@H](NC(=O)[C@@H]1CCCN1C(=O)[C@H](CC(C)C)NC(=O)[C@H](CC(=O)O)NC(=O)[C@@H](NC(=O)[C@H](CO)NC(=O)[C@@H](NC(=O)[C@@H]1CCCN1C(=O)[C@@H]1CCCN1C(=O)CNC(=O)[C@@H]1CCC(=O)N1)[C@@H](C)CC)[C@@H](C)CC)[C@@H](C)CC)[C@@H](C)CC)[C@@H](C)CC)[C@@H](C)O)C(N)=O [compound 26]	91.8	86	> 1000	16
CC[C@H](C)[C@H](NC(=O)[C@@H](NC(=O)[C@H](CC(=O)O)NC(=O)[C@H](CC(C)C)NC(=O)[C@H](CC(C)C)NC(=O)[C@H](CC(C)C)NC(=O)[C@H](CCCNC(=N)N)NC(=O)[C@H](CC(N)=O)NC(=O)[C@H](CC(N)=O)NC(=O)[C@H](C)NC(=O)[C@H](C)NC(=O)[C@H](CCC(N)=O)NC(=O)[C@H](CCC(N)=O)NC(=O)[C@H](CCCCN)NC(=O)[C@H](CCC(=O)O)NC(=O)[C@H](CCCCN)NC(=O)[C@H](CCC(=O)O)NC(=O)[C@H](CCC(N)=O)NC(=O)[C@H](CCCCN)NC(=O)[C@H](CCC(=O)O)NC(=O)[C@@H](NC(=O)[C@H](CCC(=O)O)NC(=O)[C@@H](NC(=O)[C@H](CCSC)NC(=O)[C@H](CCCCN)NC(=O)[C@H](CCCNC(=N)N)NC(=O)[C@H](CC(C)C)NC(=O)[C@H](CC(C)C)NC(=O)[C@H](CCC(N)=O)NC(=O)[C@@H](NC(=O)[C@@H]1CCCN1C(=O)[C@H](CC(C)C)NC(=O)[C@H](CC(=O)O)NC(=O)[C@@H](NC(=O)[C@H](CO)NC(=O)[C@@H](NC(=O)[C@@H]1CCCN1C(=O)[C@@H]1CCCN1C(=O)CNC(=O)[C@@H]1CCC(=O)N1)[C@@H](C)CC)[C@@H](C)CC)[C@@H](C)O)[C@@H](C)CC)[C@@H](C)CC)[C@@H](C)O)C(N)=O [compound 72]	–	55	–	4
CC[C@H](C)[C@H](NC(=O)[C@@H](NC(=O)[C@H](CC(=O)O)NC(=O)[C@H](CC(C)C)NC(=O)[C@H](CC(C)C)NC(=O)[C@H](CC(C)C)NC(=O)[C@H](CCCNC(=N)N)NC(=O)[C@H](CC(N)=O)NC(=O)[C@H](CC(N)=O)NC(=O)[C@H](C)NC(=O)[C@H](C)NC(=O)[C@H](CCC(N)=O)NC(=O)[C@H](CCC(N)=O)NC(=O)[C@H](CCCCN)NC(=O)[C@H](CCC(=O)O)NC(=O)[C@H](CCCCN)NC(=O)[C@H](CCC(=O)O)NC(=O)[C@H](CCC(N)=O)NC(=O)[C@H](CCCCN)NC(=O)[C@H](CCC(=O)O)NC(=O)[C@@H](NC(=O)[C@H](CCC(=O)O)NC(=O)[C@@H](NC(=O)[C@H](CCSC)NC(=O)[C@H](CCCCN)NC(=O)[C@H](CCCNC(=N)N)NC(=O)[C@H](CC(C)C)NC(=O)[C@H](CC(C)C)NC(=O)CNC(=O)[C@@H](NC(=O)[C@@H]1CCCN1C(=O)[C@@H](NC(=O)[C@H](CC(=O)O)NC(=O)[C@H](CC(C)C)NC(=O)[C@H](CO)NC(=O)[C@H](CC(C)C)NC(=O)[C@@H](NC(=O)[C@@H](NC(=O)CNC(=O)[C@@H]1CCC(=O)N1)[C@@H](C)CC)C(C)C)C(C)C)[C@@H](C)CC)[C@@H](C)CC)[C@@H](C)CC)[C@@H](C)O)C(N)=O [compound 153]	–	97	–	7
CC[C@H](C)[C@H](NC(=O)[C@@H](NC(=O)[C@H](CC(=O)O)NC(=O)[C@H](CC(C)C)NC(=O)[C@H](CC(C)C)NC(=O)[C@H](CC(C)C)NC(=O)[C@H](C)NC(=O)[C@H](CC(N)=O)NC(=O)[C@H](CC(N)=O)NC(=O)[C@H](C)NC(=O)[C@H](C)NC(=O)[C@H](CCC(N)=O)NC(=O)[C@H](CCC(N)=O)NC(=O)[C@H](CCCCN)NC(=O)[C@H](CCC(=O)O)NC(=O)[C@H](CCCCN)NC(=O)[C@H](CCC(=O)O)NC(=O)[C@H](CCC(N)=O)NC(=O)[C@H](CCCCN)NC(=O)[C@H](CCC(=O)O)NC(=O)[C@@H](NC(=O)[C@H](CCC(=O)O)NC(=O)[C@@H](NC(=O)[C@H](CCSC)NC(=O)[C@H](CCCCN)NC(=O)[C@H](CCCNC(=N)N)NC(=O)[C@H](CC(C)C)NC(=O)[C@H](CC(C)C)NC(=O)[C@H](Cc1ccc(O)cc1)NC(=O)[C@H](CC(C)C)NC(=O)[C@@H]1CCCN1C(=O)[C@H](CC(C)C)NC(=O)[C@H](CC(=O)O)NC(=O)[C@@H](NC(=O)[C@H](CO)NC(=O)[C@@H](NC(=O)[C@@H]1CCCN1C(=O)[C@@H]1CCCN1C(=O)CNC(=O)[C@@H]1CCC(=O)N1)[C@@H](C)CC)[C@@H](C)CC)[C@@H](C)CC)[C@@H](C)CC)[C@@H](C)O)C(N)=O [compound 244]	–	98	–	100
CC[C@H](C)[C@H](NC(=O)[C@H](CCCNC(=N)N)NC(=O)[C@H](C)NC(=O)[C@H](CC(C)C)NC(=O)[C@H](CC(C)C)NC(=O)[C@H](CCCNC(=N)N)NC(=O)[C@H](C)NC(=O)[C@H](CC(N)=O)NC(=O)[C@H](CC(N)=O)NC(=O)[C@H](C)NC(=O)[C@H](C)NC(=O)[C@H](CCC(N)=O)NC(=O)[C@H](CCC(N)=O)NC(=O)[C@H](CCCCN)NC(=O)[C@H](CCC(=O)O)NC(=O)[C@H](CCCCN)NC(=O)[C@H](CCC(=O)O)NC(=O)[C@H](CCC(N)=O)NC(=O)[C@H](CCCCN)NC(=O)[C@H](CCC(=O)O)NC(=O)[C@@H](NC(=O)[C@H](CCC(=O)O)NC(=O)[C@@H](NC(=O)[C@H](CCSC)NC(=O)[C@H](CCCCN)NC(=O)[C@H](CCCNC(=N)N)NC(=O)[C@H](CC(C)C)NC(=O)[C@H](CC(C)C)NC(=O)[C@@H](NC(=O)[C@@H](NC(=O)[C@@H]1CCCN1C(=O)[C@H](CC(C)C)NC(=O)[C@H](CC(=O)O)NC(=O)[C@@H](NC(=O)[C@H](CO)NC(=O)[C@@H](NC(=O)[C@@H]1CCCN1C(=O)[C@@H]1CCCN1C(=O)CNC(=O)[C@@H]1CCC(=O)N1)[C@@H](C)CC)[C@@H](C)CC)[C@@H](C)CC)[C@@H](C)CC)[C@@H](C)CC)[C@@H](C)CC)C(N)=O [compound 290]	–	100	–	6.4
CC[C@H](C)[C@H](NC(=O)[C@H](C)NC(=O)[C@H](CCCCN)NC(=O)[C@H](CCCNC(=N)N)NC(=O)[C@H](CC(C)C)NC(=O)[C@H](CC(C)C)NC(=O)[C@H](CCC(N)=O)NC(=O)[C@H](Cc1ccccc1)NC(=O)[C@@H]1CCCN1C(=O)[C@H](CC(C)C)NC(=O)[C@H](CC(=O)O)NC(=O)[C@@H](NC(=O)[C@H](CO)NC(=O)[C@@H](NC(=O)[C@@H]1CCCN1C(=O)[C@@H]1CCCN1C(=O)CNC(=O)[C@@H]1CCC(=O)N1)[C@@H](C)CC)[C@@H](C)CC)C(=O)N[C@@H](CCC(=O)O)C(=O)N[C@H](C(=O)N[C@@H](CCC(=O)O)C(=O)N[C@@H](CCCCN)C(=O)N[C@@H](CCC(N)=O)C(=O)N[C@@H](CCC(=O)O)C(=O)N[C@@H](CCCCN)C(=O)N[C@@H](CCC(=O)O)C(=O)N[C@@H](CCCCN)C(=O)N[C@@H](CCC(N)=O)C(=O)N[C@@H](CCC(N)=O)C(=O)N[C@@H](C)C(=O)N[C@H](C(=O)N[C@H](C(=O)N[C@@H](CC(N)=O)C(=O)N[C@@H](C)C(=O)N[C@@H](CCCNC(=N)N)C(=O)N[C@@H](CC(C)C)C(=O)N[C@@H](CC(C)C)C(=O)N[C@@H](CC(=O)O)C(=O)N[C@@H](CCCNC(=N)N)C(=O)N[C@H](C(N)=O)C(C)C)[C@@H](C)O)[C@@H](C)O)[C@@H](C)CC [compound 363]	25.1	100	≥ 1000	20
